The values that follow come from ChEMBL document CHEMBL3826965, “Synthesis and in vitro reactivation study of isonicotinamide derivatives of 2-(hydroxyimino)-N-(pyridin-3-yl)acetamide as reactivators of Sarin and VX inhibited human acetylcholinesterase (hAChE)” (2016).

The data set can be described thus: Acid dissociation constant, pKa of the compound in 5.97 to 8.05 pH of phosphate/8.44 to 9.12 pH of tris/9.52 to 10.48 pH of glycine-NaOH buffer by spectrophotometry.
Usually pKa stands for the pH at which an ionisable group is half protonated. Compound `NC(=O)c1cc[n+](CC[n+]2cccc(NC(=O)/C=N\O)c2)cc1.[Br-].[Br-]` returned a pKa of 8.25. The figure for `NC(=O)c1cc[n+](CCCCC[n+]2cccc(NC(=O)/C=N\O)c2)cc1.[Br-].[Br-]` is 8.25.

In turn, `NC(=O)c1cc[n+](CCC[n+]2cccc(NC(=O)/C=N\O)c2)cc1.[Br-].[Br-]` displayed a pKa of 8.25.

The compound `NC(=O)c1cc[n+](CCCC[n+]2cccc(NC(=O)/C=N\O)c2)cc1.[Br-].[Br-]` came in with a pKa of 8.25.
